Patent US20180236024A1 (STC UNM, published 2018)

T1: GFP-TRIM20 (full-length human TRIM20) (human, UniProt O15553 1-781)
T1 construct: also called T20; wild type TRIM20; not shown: GFP tag
T1 sequence: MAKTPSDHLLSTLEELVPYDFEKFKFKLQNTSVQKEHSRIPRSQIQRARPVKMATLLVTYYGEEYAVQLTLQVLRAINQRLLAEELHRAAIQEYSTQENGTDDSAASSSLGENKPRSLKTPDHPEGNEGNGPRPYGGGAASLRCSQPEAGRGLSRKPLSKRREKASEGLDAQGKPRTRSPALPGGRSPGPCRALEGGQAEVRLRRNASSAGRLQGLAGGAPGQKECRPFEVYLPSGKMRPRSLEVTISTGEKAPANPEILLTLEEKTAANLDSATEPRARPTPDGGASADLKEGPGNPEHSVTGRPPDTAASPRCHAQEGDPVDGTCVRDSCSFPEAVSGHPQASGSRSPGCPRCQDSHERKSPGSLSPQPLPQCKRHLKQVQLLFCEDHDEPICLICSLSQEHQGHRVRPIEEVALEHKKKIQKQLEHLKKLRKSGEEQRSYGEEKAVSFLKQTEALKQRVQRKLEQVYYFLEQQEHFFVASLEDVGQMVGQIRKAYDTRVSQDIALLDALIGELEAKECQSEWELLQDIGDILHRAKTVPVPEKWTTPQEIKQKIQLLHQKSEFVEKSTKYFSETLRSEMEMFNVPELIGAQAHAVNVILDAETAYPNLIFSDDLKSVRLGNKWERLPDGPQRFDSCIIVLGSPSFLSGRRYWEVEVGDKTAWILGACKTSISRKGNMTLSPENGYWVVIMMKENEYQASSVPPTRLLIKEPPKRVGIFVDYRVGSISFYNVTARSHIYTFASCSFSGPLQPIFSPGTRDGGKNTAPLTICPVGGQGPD


Assays:
[1] = target: T1, GFP-TRIM20 (full-length human TRIM20); assay: co-IP of GFP-TRIM20 with endogenous ATG16L1
[2] = target: T1, GFP-TRIM20 (full-length human TRIM20); assay: co-IP of GFP-TRIM20 with Flag-TRIM21, HEK293 cell extracts

Binder | binding result [1] | binding result [2]
ATG16L1 (other, UniProt Q676U5 1-607, looked up, Flag-tagged overexpressed or endogenous, depending on the experiment; also called Flag-ATG16L1; endogenous ATG16L1) MSSGLRAADFPRWKRHISEQLRRRDRLQRQAFEEIILQYNKLLEKSDLHSVLAQKLQAEKHDVPNRHEISPGHDGTWNDNQLQEMAQLRIKHQEELTELHKKRGELAQLVIDLNNQMQRKDREMQMNEAKIAECLQTISDLETECLDLRTKLCDLERANQTLKDEYDALQITFTALEGKLRKTTEENQELVTRWMAEKAQEANRLNAENEKDSRRRQARLQKELAEAAKEPLPVEQDDDIEVIVDETSDHTEETSPVRAISRAATKRLSQPAGGLLDSITNIFGRRSVSSFPVPQDNVDTHPGSGKEVRVPATALCVFDAHDGEVNAVQFSPGSRLLATGGMDRRVKLWEVFGEKCEFKGSLSGSNAGITSIEFDSAGSYLLAASNDFASRIWTVDDYRLRHTLTGHSGKVLSAKFLLDNARIVSGSHDRTLKLWDLRSKVCIKTVFAGSSCNDIVCTEQCVMSGHFDKKIRFWDIRSESIVREMELLGKITALDLNPERTELLSCSRDDLLKVIDLRTNAIKQTFSAPGFKCGSDWTRVVFSPDGSYVAAGSAEGSLYIWSVLTGKVEKVLSKQHSSSINAVAWSPSGSHVVSVDKGCKAVLWAQY | binds | 
TRIM21 expressed in cells (other, GFP-tagged in the co-IP with ULK1 and Beclin 1, Flag-tagged in the co-IP with GFP-TRIM20; The clone was bought from DNASU; also called GFP-TRIM21; T21) MASAARLTMMWEEVTCPICLDPFVEPVSIECGHSFCQECISQVGKGGGSVCPVCRQRFLLKNLRPNRQLANMVNNLKEISQEAREGTQGERCAVHGERLHLFCEKDGKALCWVCAQSRKHRDHAMVPLEEAAQEYQEKLQVALGELRRKQELAEKLEVEIAIKRADWKKTVETQKSRIHAEFVQQKNFLVEEEQRQLQELEKDEREQLRILGEKEAKLAQQSQALQELISELDRRCHSSALELLQEVIIVLERSESWNLKDLDITSPELRSVCHVPGLKKMLRTCAVHITLDPDTANPWLILSEDRRQVRLGDTQQSIPGNEERFDSYPMVLGAQHFHSGKHYWEVDVTGKEAWDLGVCRDSVRRKGHFLLSSKSGFWTIWLWNKQKYEAGTYPQTPLHLQVPPCQVGIFLDYEAGMVSFYNITDHGSLIYSFSECAFTGPLRPFFSPGFNDGGKNTAPLTLCPLNIGSQGSTDY |  | binds
